{"source": "patent US8613821B2", "about": "“Basic metal nitrate, process for producing the same and gas generating agent composition” (dated 2013)", "origin": "cited, not measured here", "test_system": "rat"}
{"smiles": "NNc1nc(NN)nc(NN)n1", "values": [{"measurement": "LD50 (oral-rat)", "value": "3,161 mg/kg"}]}
